Test [1] concerns the target Myeloid Cell Leukemia 1 (Mcl-1) (Homo sapiens, UniProt Q07820). In words: Terbium labeled Mcl-1 HTRF binding assay (displacement of Cy5-labeled BIM BH3 peptide). The settings on record: read-out: Tb-MCL1 Ki, 25 pM Tb-Mcl-1, 8 nM Cy5 Bim peptide, Ki=IC50/(1+[L]/Kd), [L]=8 nM, Kd=10 nM, 60 min at room temperature. The method, then:
Terbium labeled Myeloid Cell Leukemia 1 (Mcl-1) homogeneous time-resolved fluorescence (HTRF) binding assay utilizing the BIM BH3 peptide (H2N—(C/Cy5Mal) WIAQELRRIGDEFN-OH) as the binding partner for Mcl-1.
This assay evaluated inhibition of the BH3 domain: Mcl-1 interaction by measuring the displacement of Cy5-labeled BIM BH3 peptide (H2N—(C/Cy5Mal) WIAQELRRIGDEFN-OH) in the HTRF assay format.
The following assay and stock buffers were prepared for use in the assay: (a) Stock buffer: 10 mM Tris-HCl, pH=7.5+150 mM NaCl, filtered, sterilized, and stored at 4° C.; and (b) 1× assay buffer, where the following ingredients were added fresh to stock buffer: 2 mM dithiothreitol (DTT), 0.0025% Tween-20, 0.1 mg/mL bovine serum albumin (BSA). The 1×Tb-Mcl-1+Cy5 Bim peptide solution was prepared by diluting the protein stock solution using the 1×assay buffer (b) to 25 pM Tb-Mcl-1 and 8 nM Cy5 Bim peptide.
Using the Acoustic ECHO, 100 nL of 100×test compound(s) were dispensed into individual wells of a white 384-well Perkin Elmer Proxiplate, for a final compound concentration of 1×and final DMSO concentration of 1%. Inhibitor control and neutral control (NC, 100 nL of 100% DMSO) were stamped into columns 23 and 24 of assay plate, respectively. Into each well of the plate was then dispensed 10 μL of the 1× Tb-Mcl-1+Cy5 Bim peptide solution. The plate was centrifuged with a cover plate at 1000 rpm for 1 minute, then incubated for 60 minutes at room temperature with plates covered. The TR-FRET signal was read on an BMG PHERAStar FSX MicroPlate Reader at room temperature using the HTRF optic module (HTRF: excitation: 337 nm, light source: laser, emission A: 665 nm, emission B: 620 nm, integration start: 60 μs, integration time: 400 μs).
The BMG PHERAStar FSX MicroPlate Reader was used to measure fluorescence intensity at two emission wavelengths—665 nm and 620 nm—and report relative fluorescence units (RFU) for both emissions, as well as a ratio of the emissions (665 nm/620 nm)*10,000. The RFU values were normalized to percent inhibition as follows: […]
(TR-FRET usually uses a lanthanide donor and a delayed reading to cut background.)

Sequences of proteins named here, by UniProt entry; tags and fusion partners are left off.
UniProt Q07820, whole entry: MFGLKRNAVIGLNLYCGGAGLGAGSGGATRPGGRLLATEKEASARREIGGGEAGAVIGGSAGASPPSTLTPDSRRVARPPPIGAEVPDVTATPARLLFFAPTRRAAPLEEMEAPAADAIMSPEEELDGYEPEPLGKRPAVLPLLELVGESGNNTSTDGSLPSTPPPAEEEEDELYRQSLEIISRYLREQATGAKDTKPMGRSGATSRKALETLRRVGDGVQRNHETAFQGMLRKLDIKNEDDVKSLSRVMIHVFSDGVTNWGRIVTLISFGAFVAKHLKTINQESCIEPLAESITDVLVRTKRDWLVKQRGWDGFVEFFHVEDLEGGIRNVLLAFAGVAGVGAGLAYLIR

Test [2] relates to MOLP-8 human multiple myeloma cell line. In words: Caspase-Glo 3/7 apoptosis induction assay in MOLP-8 cells. The note with it: read-out: MOLP8 Caspase-Glo AC50, 2 hours at 37° C., caspase-3/7 luminescence, averaged over all runs on all batches. From the text:
MCL-1 is a regulator of apoptosis and is highly over-expressed in tumor cells that escape cell death. The assay evaluates the cellular potency of small-molecule compounds targeting regulators of the apoptosis pathway, primarily MCL-1, Bfl-1, Bcl-2, and other proteins of the Bcl-2 family. Protein-protein inhibitors disrupting the interaction of anti-apoptotic regulators with BH3-domain proteins initiate apoptosis.
The Caspase-Glo® 3/7 Assay is a luminescent assay that measures caspase-3 and -7 activities in purified enzyme preparations or cultures of adherent or suspension cells. The assay provides a proluminescent caspase-3/7 substrate, which contains the tetrapeptide sequence DEVD. This substrate is cleaved to release aminoluciferin, a substrate of luciferase used in the production of light. Addition of the single Caspase-Glo® 3/7 Reagent in an “add-mix-measure” format results in cell lysis, followed by caspase cleavage of the substrate and generation of a “glow-type” luminescent signal. This assay uses the MOLP-8 human multiple myeloma cell line, which is sensitive to MCL-1 inhibition.
• Perkin Elmer Envision • Multidrop 384 and small volume dispensing cassettes • Centrifuge • Countess automated cell counter • Countess counting chamber slides • Assay plate: ProxiPlate-384 Plus, White 384-shallow well Microplate • Sealing tape: Topseal A plus • T175 culture flask
Cell cultures were maintained between 0.2 and 2.0×10^6 cells/mL. The cells were harvested by collection in 50 mL conical tubes. The cells were then pelleted at 500 g for 5 mins before removing supernatant and resuspension in fresh pre-warmed culture medium. The cells were counted and diluted as needed.
The assay reagent was prepared by transferring the buffer solution to the substrate vial and mixing. […]
Compounds were delivered in assay-ready plates (Proxiplate) and stored at −20° C. […] The plates were then sealed and measured after 30 minutes.
The activity of a test compound was calculated as percent change in apoptosis induction as follows: […]

As to `Cc1c2c(nn1C)COCc1cc(n(C)n1)CCc1cc(c3ccc(F)cc3c1)OCCCc1c(C(=O)O)n(C)c3c-2c(Cl)ccc13` [Compound 4], the Ki in test [1] came to 2.71 nM. The AC50 in test [2] stood at 1980 nM.
The corresponding values for `Cc1c2c(nn1C)C(CCN1CCOCC1)OCc1cc(n(C)n1)CSc1cc(c3ccccc3c1)OCCCc1c(C(=O)O)n(C)c3c-2c(Cl)ccc13` (stereo not drawn) are 0.241 nM and 2160 nM.
The corresponding values for `Cc1c2c(nn1C)COCc1cc(n(C)n1)CCc1cc(c3ccc(F)cc3c1)OCCCc1c(C(=O)O)n(C)c3c-2c(Cl)ccc13` [Compound 3] are 0.02 nM and 13.5 nM.

(Values after patent US20230250109A1, “MACROCYCLIC ETHER CONTAINING INDOLE DERIVATIVES AS INHIBITORS OF MCL-1” (Janssen Pharmaceutica NV, priority 2020, published 2023).)
